According to patent US20240327383A1 (priority 2021, published 2024):
pKi: −log10 of the molar value.

By UniProt entry, the sequences of proteins in these tests, tags left out.
UniProt P35372, whole entry: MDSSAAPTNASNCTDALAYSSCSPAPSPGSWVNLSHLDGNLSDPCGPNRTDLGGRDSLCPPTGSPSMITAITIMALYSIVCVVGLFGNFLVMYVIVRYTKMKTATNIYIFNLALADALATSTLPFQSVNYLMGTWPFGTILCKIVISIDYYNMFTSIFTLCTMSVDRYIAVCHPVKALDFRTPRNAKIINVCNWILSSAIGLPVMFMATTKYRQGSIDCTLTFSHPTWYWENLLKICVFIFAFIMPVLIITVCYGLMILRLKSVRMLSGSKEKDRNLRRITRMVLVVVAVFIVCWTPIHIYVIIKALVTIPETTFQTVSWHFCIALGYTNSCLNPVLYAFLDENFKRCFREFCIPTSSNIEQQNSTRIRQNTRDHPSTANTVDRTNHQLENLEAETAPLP
UniProt P41146, whole entry: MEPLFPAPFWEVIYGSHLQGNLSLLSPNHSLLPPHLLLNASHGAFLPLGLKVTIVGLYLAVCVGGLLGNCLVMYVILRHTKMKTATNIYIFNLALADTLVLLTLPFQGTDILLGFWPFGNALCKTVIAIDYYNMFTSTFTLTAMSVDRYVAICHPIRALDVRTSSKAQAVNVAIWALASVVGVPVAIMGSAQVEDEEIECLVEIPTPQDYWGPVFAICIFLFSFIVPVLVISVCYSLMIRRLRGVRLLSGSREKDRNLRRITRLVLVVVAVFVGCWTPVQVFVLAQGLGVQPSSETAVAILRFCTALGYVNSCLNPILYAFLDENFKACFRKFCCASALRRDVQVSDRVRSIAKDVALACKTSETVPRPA

Biological target: hMOPr (Homo sapiens, UniProt P35372)
Experiment: Opioid receptor affinity, radioligand binding ([3H]-DAMGO), CHO-K1 MOP receptor cell membrane
Settings: summary of the binding panel MOP/NOP/KOP/DOP

| SMILES | selectivity and affinity for MOP receptor and KOP receptor (in words) | selectivity and affinity for MOP receptor and NOP receptor (in words) |
| --- | --- | --- |
| O=c1n(CCN2CCOCC2)c2cc(Cl)c(Cl)cc2n1C1CCN(Cc2ccccc2Cl)CC1 | high selectivity and high affinity for MOP receptor and KOP receptor | – |
| CC(C)[C@H]1CC[C@@H](N2CCC(n3c(=O)n(CCN(C)C)c4cc(Cl)c(Cl)cc43)CC2)CC1 | – | high selectivity and high affinity for MOP receptor and NOP receptor |
| CN(C)C(=O)Cn1c(=O)n(C2CCN(Cc3ccc(F)cc3Cl)CC2)c2cc(Cl)c(Cl)cc21 | high selectivity and high affinity for MOP receptor and KOP receptor | – |
| CC(C)[C@H]1CC[C@@H](N2CCC(n3c(=O)n(CCN4CCOCC4)c4cc(Cl)c(Cl)cc43)CC2)CC1 | – | high selectivity and high affinity for MOP receptor and NOP receptor |

Biological target: hNOPr (Homo sapiens, UniProt P41146)
Experiment: Opioid receptor affinity, radioligand binding ([3H]-Nociceptin), HEK293-NOP receptor cell membrane
Settings: read-out: Opioid receptor affinity Ki hNOPr; [3H]-Nociceptin 0.5 nM

| SMILES | pKi |
| --- | --- |
| CC(C)C1CCC(N2CCC(n3c(=O)n(CCN4CCOCC4)c4cc(Cl)c(Cl)cc43)CC2)CC1 (stereo not shown) | 7.23 |
| CC(C)C1CCC(N2CCC(n3c(=O)n(CCN4CCOCC4)c4cc(F)c(F)cc43)CC2)CC1 (stereo not shown) | 7.41 |
| Cc1cc(F)ccc1CN1CCC(n2c(=O)n(CCN3CCOCC3)c3cc(Cl)c(Cl)cc32)CC1 | 7.12 |
| O=c1n(CCN2CCOCC2)c2cc(Cl)c(Cl)cc2n1C1CCN(Cc2ccc(Cl)cc2Cl)CC1 | 7.27 |
| O=c1n(CCN2CCOCC2)c2cc(Cl)c(Cl)cc2n1C1CCN(Cc2ccccc2Cl)CC1 | 7.42 |
| O=c1n(CCN2CCOCC2)c2cc(F)c(F)cc2n1C1CCN(Cc2ccc(F)cc2Cl)CC1 | 7.21 |
| CC(C)[C@H]1CC[C@@H](N2CCC(n3c(=O)n(CCN(C)C)c4cc(Cl)c(Cl)cc43)CC2)CC1 | 8.39 |
| O=c1n(CCN2CCOCC2)c2cc(Cl)c(Cl)cc2n1C1CCN(Cc2ccccc2F)CC1 | 7.49 |
| Cc1cc(Cl)ccc1CN1CCC(n2c(=O)n(CCN3CCOCC3)c3cc(Cl)c(Cl)cc32)CC1 | 6.87 |
| Cc1ccc(CN2CCC(n3c(=O)n(CCN4CCOCC4)c4cc(Cl)c(Cl)cc43)CC2)c(C)c1 | 7.21 |
| O=C1CCCN1CCn1c(=O)n(C2CCN(Cc3ccccc3Cl)CC2)c2cc(Cl)c(Cl)cc21 | 8.44 |
| CC(C)C1CCC(N2CCC(n3c(=O)n(CCN4CCOCC4)c4cc(Cl)c(F)cc43)CC2)CC1 (stereo not shown) | 7.08 |
| CC(=O)N1CCN(CCn2c(=O)n(C3CCN(Cc4ccc(F)cc4Cl)CC3)c3cc(Cl)c(Cl)cc32)CC1 | 7.70 |
| O=c1n(CCN2CC3(COC3)C2)c2cc(Cl)c(Cl)cc2n1C1CCN(Cc2ccc(F)cc2Cl)CC1 | 8.15 |
| O=c1n(CCN2CCOCC2)c2cc(Cl)c(Cl)cc2n1C1CCN(Cc2ccc(Cl)cc2)CC1 | 6.40 |
| O=c1n(CCN2CCOCC2)c2cc(Cl)c(F)cc2n1C1CCN(Cc2ccc(F)cc2Cl)CC1 | 7.74 |
| O=C1CN(CCn2c(=O)n(C3CCN(Cc4ccc(F)cc4Cl)CC3)c3cc(Cl)c(Cl)cc32)CCN1 | 7.87 |
| O=c1n(CCN2CCS(=O)(=O)CC2)c2cc(Cl)c(Cl)cc2n1C1CCN(Cc2ccc(F)cc2Cl)CC1 | 7.84 |
| O=c1n(CCN2CCOCC2)c2cc(F)c(Cl)cc2n1C1CCN(Cc2ccc(F)cc2Cl)CC1 | 7.33 |
| O=c1n(CCN2CCCC2)c2cc(Cl)c(Cl)cc2n1C1CCN(Cc2ccc(F)cc2Cl)CC1 | 8.06 |
| CC(C)[C@H]1CC[C@@H](N2CCC(n3c(=O)n(CCN4CCOCC4)c4cc(Cl)ccc43)CC2)CC1 | 6.78 |
| Cc1ccccc1CN1CCC(n2c(=O)n(CCN3CCOCC3)c3cc(Cl)c(Cl)cc32)CC1 | 7.68 |
| O=c1n(CCN2CCOCC2)c2cc(Cl)c(Cl)cc2n1C1CCN(C2Cc3ccccc3C2)CC1 | 7.76 |

| SMILES | pKi |
| --- | --- |
| Cc1ccc(CN2CCC(n3c(=O)n(CCN4CCOCC4)c4cc(Cl)c(Cl)cc43)CC2)c(Cl)c1 | 7.40 |
| COc1cc(Cl)ccc1CN1CCC(n2c(=O)n(CCN3CCOCC3)c3cc(Cl)c(Cl)cc32)CC1 | 7.28 |
| O=c1n(CCN2CCOCC2)c2cc(Cl)c(Cl)cc2n1C1CCN(Cc2ccc(F)cc2Cl)CC1 | 7.61 |
| CN(C)CCn1c(=O)n(C2CCN(Cc3ccc(F)cc3Cl)CC2)c2cc(Cl)c(Cl)cc21 | 8.24 |
| Cc1cc(C)c(CN2CCC(n3c(=O)n(CCN4CCOCC4)c4cc(Cl)c(Cl)cc43)CC2)c(C)c1 | 6.25 |
| CC(C)C1CCC(N2CCC(n3c(=O)n(CCN4CCOCC4)c4cc(F)c(Cl)cc43)CC2)CC1 (stereo not shown) | 7.17 |
| CCC1CCC(N2CCC(n3c(=O)n(CCN4CCOCC4)c4cc(Cl)c(Cl)cc43)CC2)CC1 (stereo not shown) | 7.53 |
| CN(C)CCn1c(=O)n(C2CCN(Cc3ccc(F)cc3)CC2)c2cc(Cl)c(Cl)cc21 | 7.37 |
| CN(C)C(=O)Cn1c(=O)n(C2CCN(Cc3ccc(F)cc3Cl)CC2)c2cc(Cl)c(Cl)cc21 | 7.17 |
| CN1CCN(CCn2c(=O)n(C3CCN(Cc4ccc(F)cc4Cl)CC3)c3cc(Cl)c(Cl)cc32)CC1 | 7.69 |
| O=c1n(CCN2CCOCC2)c2ccc(F)cc2n1C1CCN(Cc2ccccc2Cl)CC1 | 7.13 |
| Cc1ccc2c(c1)n(CCN1CCOCC1)c(=O)n2C1CCN(Cc2ccccc2Cl)CC1 | 6.89 |
| O=c1n(CCN2CCOCC2)c2cc(Cl)c(Cl)cc2n1C1CCN(Cc2ccc(Cl)s2)CC1 | 6.29 |
| O=c1n(CCN2CCOCC2)c2cc(Cl)c(Cl)cc2n1C1CCN(Cc2ccc(Cl)cc2F)CC1 | 6.67 |
| CC(C)[C@H]1CC[C@@H](N2CCC(n3c(=O)n(CCN4CCOCC4)c4cc(Cl)c(Cl)cc43)CC2)CC1 | 7.42 |
| O=C1N(CCN2CCOCC2)Cc2cc(Cl)c(Cl)cc2N1C1CCN(Cc2ccc(F)cc2Cl)CC1 | 7.98 |
| O=c1n(CCN2CCCCC2)c2cc(Cl)c(Cl)cc2n1C1CCN(Cc2ccc(F)cc2Cl)CC1 | 7.82 |
| O=c1n(CC2CO2)c2cc(Cl)c(Cl)cc2n1C1CCN(Cc2ccccc2F)CC1 (stereo not shown) | 8.03 |
| CC(C)[C@H]1CC[C@@H](N2CCC(n3c(=O)n(CCN4CCOCC4)c4ccc(F)cc43)CC2)CC1 | 7.78 |
| CN(C)C(=O)Cn1c(=O)n(C2CCN(Cc3ccc(F)cc3)CC2)c2cc(Cl)c(Cl)cc21 | 7.11 |
| CC(C)(C)C1CCC(N2CCC(n3c(=O)n(CCN4CCOCC4)c4cc(Cl)c(Cl)cc43)CC2)CC1 (stereo not shown) | 6.93 |
| O=c1n(CCN2CCOCC2)c2cc(Cl)c(Cl)cc2n1C1CCN(Cc2ccc(F)cc2F)CC1 | 7.01 |
